# Measured values: PubChem BioAssay AID602363 (Broad Institute, 2012)
# Where “and” joins values, the source holds several entries; their conditions need not be identical. Equal values may be shown once. Among all 350,000 compounds or so, about 450 (0.13%) were called active.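 How the source made its calls: active means replicate mean at a twofold rise or more (about +100% in these data); inactive means the rest.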 The full list was thinned out, with actives kept by preference. Where a structure was tested more than once in an assay, its records may differ in their call.
# Test: modulators of yeast start codon fidelity, primary screen, whole organism, S. cerevisiae, single point, plate reader (AID 602363)
# Settings: S. cerevisiae UUG-firefly luciferase reporter, luminescence/redox ratio; at 18.7 µM; stronger effect = higher value
row,Structure (SMILES),activity score
1,CN1CCN(C(=O)/C(=C\c2cccs2)NC(=O)c2cccs2)CC1,0.022% (active)
2,CC1CCN(C(=O)/C(=C\c2ccccc2)NC(=O)c2ccccc2)CC1,-8.7% (inactive)
3,Cc1ccc(C(=O)N/C(=C\c2cn(C)c3ccccc23)C(=O)N2CCN(C)CC2)cc1,0.501% (inactive)
4,CCNC(=O)C[C@@H]1CC[C@@H]2[C@H](COc3ccc(NS(=O)(=O)c4ccccc4C)cc3C(=O)N2C)O1,-8.72% (inactive)
5,O=C(C[C@@H]1C=C[C@H](NC(=O)c2ccc3c(c2)OCO3)[C@H](CO)O1)NCc1ccc(Oc2ccccc2)cc1,8.13% (inactive)
6,Cc1noc(C)c1S(=O)(=O)N(C)C[C@@H]1OCCCC[C@H](C)Oc2ccc(NC(=O)NC(C)C)cc2C(=O)N([C@H](C)CO)C[C@@H]1C,27% (inactive)
7,CC(C)C#Cc1cnc2c(c1)C(=O)N([C@@H](C)CO)C[C@@H](C)[C@@H](CN(C)C(=O)c1cccc(F)c1)O2,0.693% (inactive)
8,C[C@@H]1CCCCO[C@@H](CN(C)C(=O)C2CCCCC2)[C@H](C)CN([C@H](C)CO)C(=O)c2cc(NC(=O)CCC(F)(F)F)ccc2O1,21.1% (inactive)
9,COc1ccccc1CNC(=O)C[C@@H]1CC[C@H](NC(=O)CN(C)C)[C@@H](CO)O1,-14.1% (inactive)
10,COc1ccc(NC(=O)Nc2ccc3c(c2)C(=O)N([C@@H](C)CO)C[C@@H](C)[C@H](CN(C)C(=O)CCC(F)(F)F)OCCCC[C@@H](C)O3)cc1,5.29% (inactive)
11,COc1cccc(-c2ccc3c(c2)O[C@H](CN(C)C(=O)c2ccccc2F)[C@@H](C)CN([C@@H](C)CO)S3(=O)=O)c1,0.848% (inactive)
12,CCCNC(=O)[C@@H]1[C@@H](CO)[C@@H]2Cn3c(ccc(-c4cccc(OC)c4)c3=O)[C@H]1N2C(=O)NCCC,4.04% (inactive)
13,C[C@H]1CN([C@@H](C)CO)C(=O)Cc2cc(NS(=O)(=O)c3ccc(Cl)cc3)ccc2O[C@H]1CN(C)S(C)(=O)=O,-4.94% (inactive)
14,Cc1onc(-c2ccc(Cl)cc2)c1-c1ccnn1S(=O)(=O)c1ccc(Cl)cc1,174% (active)
15,COc1cc(-c2c(-c3ccc4c(c3)OCO4)noc2C)ccc1F,-5.42% (inactive)
16,Cn1nc(-c2ccccc2)c(-c2nc(-c3ccc(Cl)cc3)no2)c1Cl,-23.8% (inactive)
17,C[C@H]1CN([C@@H](C)CO)S(=O)(=O)c2ccc(Br)cc2O[C@H]1CN(C)C(=O)C1CC1,11.3% (inactive)
18,CO[C@@H]1CN(C)C(=O)c2cc(NC(C)=O)ccc2OC[C@H](C)N(C(=O)Cc2ccccn2)C[C@@H]1C,-3.54% (inactive)
19,C[C@@H]1CN([C@@H](C)CO)C(=O)c2cc(NC(=O)c3ccncc3)ccc2O[C@H]1CN(C)S(=O)(=O)c1ccc(Cl)cc1,0.708% (inactive)
20,C[C@@H]1CN([C@@H](C)CO)C(=O)c2cc(Br)cnc2O[C@@H]1CN(C)C(=O)C1CCCCC1,137% (active) and -1.46% (inactive)
21,C[C@@H]1CN([C@H](C)CO)C(=O)c2cc(Br)cnc2O[C@@H]1CN(C)C(=O)C1CC1,-8.5% (inactive)
22,C[C@H]1CN([C@@H](C)CO)C(=O)c2cc(-c3ccncc3)cnc2O[C@@H]1CN(C)C(=O)C1CCCCC1,-11.6% (inactive)
23,CCC(=O)N(C)C[C@H]1Oc2cc(-c3cccc(C#N)c3)ccc2S(=O)(=O)N([C@@H](C)CO)C[C@@H]1C,12.2% (inactive)
24,CCS(=O)(=O)Nc1ccc2c(c1)C(=O)N(C)[C@H]1CC[C@H](CC(=O)Nc3ccccc3)O[C@@H]1CO2,1.74% (inactive)
25,CC(C)NC(=O)N[C@H]1CC[C@@H](CCNC(=O)C2CCC2)O[C@@H]1CO,-11.4% (inactive)
26,COc1ccccc1-c1ccc([C@@H]2[C@@H](CO)N3CCCCN(S(=O)(=O)c4cn(C)cn4)C[C@H]23)cc1,-0.721% (inactive)
27,COc1ccc(NC(=O)N(C)C[C@@H]2Oc3ccc(NC(=O)Cn4cnnn4)cc3C(=O)N([C@H](C)CO)C[C@@H]2C)cc1,2.52% (inactive)
28,O=C(N[C@H]1CC[C@H](CCNS(=O)(=O)c2ccc(F)cc2)O[C@H]1CO)c1cccnc1,-1.19% (inactive)
29,C[C@H]1CCCCO[C@@H](CN(C)Cc2ccc3c(c2)OCO3)[C@@H](C)CN([C@@H](C)CO)C(=O)c2cc(NC(=O)Nc3ccc(F)cc3)ccc2O1,18.3% (inactive)
